The chains behind the UniProt entries cited, without tags or fusion partners. Where a name states a change or a piece, a line headed by the entry shows the natural chain unless it says otherwise.
UniProt P14780: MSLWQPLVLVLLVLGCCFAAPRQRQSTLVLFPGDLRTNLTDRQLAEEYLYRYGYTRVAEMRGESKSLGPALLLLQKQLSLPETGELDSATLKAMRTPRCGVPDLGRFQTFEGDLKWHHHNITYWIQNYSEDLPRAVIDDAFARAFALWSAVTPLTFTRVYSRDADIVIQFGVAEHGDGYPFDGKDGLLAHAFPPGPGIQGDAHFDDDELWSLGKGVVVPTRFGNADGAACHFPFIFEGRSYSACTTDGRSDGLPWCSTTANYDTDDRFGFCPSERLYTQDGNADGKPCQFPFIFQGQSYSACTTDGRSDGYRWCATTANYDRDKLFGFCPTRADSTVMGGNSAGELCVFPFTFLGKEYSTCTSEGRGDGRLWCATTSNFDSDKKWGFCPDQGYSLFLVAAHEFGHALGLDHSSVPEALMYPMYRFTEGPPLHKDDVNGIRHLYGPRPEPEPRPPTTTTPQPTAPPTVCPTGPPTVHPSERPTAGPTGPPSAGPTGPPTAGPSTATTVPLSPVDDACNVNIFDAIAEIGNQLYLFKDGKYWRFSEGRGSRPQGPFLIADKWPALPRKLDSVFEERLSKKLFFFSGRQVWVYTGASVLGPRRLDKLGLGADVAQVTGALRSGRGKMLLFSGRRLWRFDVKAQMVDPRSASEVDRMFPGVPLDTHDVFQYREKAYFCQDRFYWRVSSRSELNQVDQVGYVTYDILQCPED

According to ChEMBL document CHEMBL1149139, “Azasugar-based MMP/ADAM inhibitors as antipsoriatic agents” (J Med Chem, 2004):

Molecular target: Matrix metalloproteinase-9 (Homo sapiens, UniProt P14780)
Test: Inhibition of human recombinant matrix metalloprotease 9

COc1ccc(S(=O)(=O)N2C[C@@H](O)[C@@H](O)[C@H](O)[C@@H]2C(=O)NO)cc1
Ki: 2 nM
